{"source": "paper PMC7012964", "about": "“Biopharmaceutical Understanding of Excipient Variability on Drug Apparent Solubility Based on Drug Physicochemical Properties. Case Study: Superdisintegrants” (The AAPS Journal, 2020)", "origin": "cited, not measured here", "conditions": "ref (20), (22), (23), (25), DrugBank, (28), (31), (33); cited from earlier work"}
{"smiles": "CN(C)C(=N)N=C(N)N", "note": "[MTF, Metformin]", "values": [{"measurement": "Ionization (type)", "value": "Weak base"}]}
